Experimental data: publication PMC8093974

Biological target: complement factor H (UniProt P08603)

Substance “Uromodulin (from UniProt P07911 25-614) (natural protein)” has a haemolysis rate of sheep erythrocytes in serum with anti‐cFH antibody and 3 μg exogenous cFH (50% without UMOD), UMOD 5, 10 and 20 μg of 30%.
